Results as given in US7807162B2, “Single domain VHH antibodies against von Willebrand factor” (Ablynx N.V., priority 2005, dated 2010).
Numbering of substitutions follows the chain as printed.

Experiment: Stability at elevated temperatures: concentration of supernatant (OD280) after heating
Assay type: physicochemical
[1] = 37° C., percentage of the concentration at room temperature, Table 26
[2] = 50° C., percentage of the concentration at room temperature, Table 26
[3] = 60° C., percentage of the concentration at room temperature, Table 26
[4] = 70° C., percentage of the concentration at room temperature, Table 26
[5] = 80° C., percentage of the concentration at room temperature, Table 26
[6] = 90° C., percentage of the concentration at room temperature, Table 26
[7] = RT, OD280 nm concentration of supernatant as percentage of the concentration at room temperature, Table 26
[8] = 37° C., percentage of the concentration at room temperature, Table 30
[9] = 50° C., percentage of the concentration at room temperature, Table 30
[10] = 60° C., percentage of the concentration at room temperature, Table 30
[11] = 70° C., percentage of the concentration at room temperature, Table 30
[12] = 80° C., percentage of the concentration at room temperature, Table 30
[13] = 90° C., percentage of the concentration at room temperature, Table 30
[14] = RT, OD280 nm concentration of supernatant as percentage of the concentration at room temperature, Table 30

B1: 12B6-GS9-12B6 (protein)
chain: QVQLVESGGGLVQAGGALRLSCAASGRTFSYNPMGWFRQAPGKERDVVAAISRTGGSTYYARSVEGRFTISRDNAKRMVYLQMNALKPEDTAVYYCAAAGVRAEDGRVRTLPSEYNFWGQGTQVTVSSGGGGSGGGSEVQLVESGGGLVQAGGALRLSCAASGRTFSYNPMGWFRQAPGKERDVVAAISRTGGSTYYARSVEGRFTISRDNAKRMVYLQMNALKPEDTAVYYCAAAGVRAEDGRVRTLPSEYNFWGQGTQVTVSS
Concentration after heating at increasing temperatures (37° C., Table 20): 103 | Concentration after heating at increasing temperatures (50° C., Table 20): 94 | Concentration after heating at increasing temperatures (60° C., Table 20): 88 | Concentration after heating at increasing temperatures (70° C., Table 20): 19 | Concentration after heating at increasing temperatures (80° C., Table 20): 8 | Concentration after heating at increasing temperatures (90° C., Table 20): 7 | Concentration after heating at increasing temperatures (RT, Table 20): 100

B2: 12B6-3a-12B6 (protein)
VHH: QVQLVESGGGLVQAGGALRLSCAASGRTFSYNPMGWFRQAPGKERDVVAAISRTGGSTYYARSVEGRFTISRDNAKRMVYLQMNALKPEDTAVYYCAAAGVRAEDGRVRTLPSEYNFWGQGTQVTVSSAAAEVQLVESGGGLVQAGGALRLSCAASGRTFSYNPMGWFRQAPGKERDVVAAISRTGGSTYYARSVEGRFTISRDNAKRMVYLQMNALKPEDTAVYYCAAAGVRAEDGRVRTLPSEYNFWGQGTQVTVSS
Concentration after heating at increasing temperatures (37° C., Table 20): 103 | Concentration after heating at increasing temperatures (50° C., Table 20): 96 | Concentration after heating at increasing temperatures (60° C., Table 20): 87 | Concentration after heating at increasing temperatures (70° C., Table 20): 9 | Concentration after heating at increasing temperatures (80° C., Table 20): 8 | Concentration after heating at increasing temperatures (90° C., Table 20): 6 | Concentration after heating at increasing temperatures (RT, Table 20): 100

B3: 12A2-GS9-12A2 (protein)
VHH: QVKLEESGGGLVQAGGALRLSCAASGRTFSYNPMGWFRQAPGKERDLVAAISRTGGSTYYPDSVEGRFTISRDNAKRMVYLQMNNLKPEDTAVYYCAAAGVRAEDGRVRTLPSEYTFWGQGTQVTVSSGGGGSGGGSEVQLVESGGGLVQAGGALRLSCAASGRTFSYNPMGWFRQAPGKERDLVAAISRTGGSTYYPDSVEGRFTISRDNAKRMVYLQMNNLKPEDTAVYYCAAAGVRAEDGRVRTLPSEYTFWGQGTQVTVSS
Concentration after heating at increasing temperatures (37° C., Table 21): 102 | Concentration after heating at increasing temperatures (50° C., Table 21): 113 | Concentration after heating at increasing temperatures (60° C., Table 21): 138 | Concentration after heating at increasing temperatures (70° C., Table 21): 91 | Concentration after heating at increasing temperatures (80° C., Table 21): 13 | Concentration after heating at increasing temperatures (90° C., Table 21): 15 | Concentration after heating at increasing temperatures (RT, Table 21): 100

B4: 12A2-3a-12A2 (protein)
VHH: QVKLEESGGGLVQAGGALRLSCAASGRTFSYNPMGWFRQAPGKERDLVAAISRTGGSTYYPDSVEGRFTISRDNAKRMVYLQMNNLKPEDTAVYYCAAAGVRAEDGRVRTLPSEYTFWGQGTQVTVSSAAAEVQLVESGGGLVQAGGALRLSCAASGRTFSYNPMGWFRQAPGKERDLVAAISRTGGSTYYPDSVEGRFTISRDNAKRMVYLQMNNLKPEDTAVYYCAAAGVRAEDGRVRTLPSEYTFWGQGTQVTVSS
Concentration after heating at increasing temperatures (37° C., Table 21): 87 | Concentration after heating at increasing temperatures (50° C., Table 21): 88 | Concentration after heating at increasing temperatures (60° C., Table 21): 91 | Concentration after heating at increasing temperatures (70° C., Table 21): 55 | Concentration after heating at increasing temperatures (80° C., Table 21): 50 | Concentration after heating at increasing temperatures (90° C., Table 21): 43 | Concentration after heating at increasing temperatures (RT, Table 21): 100

B5: 12A5-3a-12A5 (protein)
VHH: AVQLVESGGGLVQPGGSLRLSCLASGRIFSIGAMGMYRQAPGKQRELVATITSGGSTNYADPVKGRFTISRDGPKNTVYLQMNSLKPEDTAVYYCYANLKQGSYGYRFNDYWGQGTQVTVSSAAAEVQLVESGGGLVQPGGSLRLSCLASGRIFSIGAMGMYRQAPGKQRELVATITSGGSTNYADPVKGRFTISRDGPKNTVYLQMNSLKPEDTAVYYCYANLKQGSYGYRFNDYWGQGTQVTVSS
Concentration after heating at increasing temperatures (37° C., Table 22): 101 | Concentration after heating at increasing temperatures (50° C., Table 22): 114 | Concentration after heating at increasing temperatures (60° C., Table 22): 29 | Concentration after heating at increasing temperatures (70° C., Table 22): 6 | Concentration after heating at increasing temperatures (80° C., Table 22): 4 | Concentration after heating at increasing temperatures (90° C., Table 22): 6 | Concentration after heating at increasing temperatures (RT, Table 22): 100

B6: 12A5-GS9-12A5 (protein)
chain: AVQLVESGGGLVQPGGSLRLSCLASGRIFSIGAMGMYRQAPGKQRELVATITSGGSTNYADPVKGRFTISRDGPKNTVYLQMNSLKPEDTAVYYCYANLKQGSYGYRFNDYWGQGTQVTVSSGGGGSGGGSEVQLVESGGGLVQPGGSLRLSCLASGRIFSIGAMGMYRQAPGKQRELVATITSGGSTNYADPVKGRFTISRDGPKNTVYLQMNSLKPEDTAVYYCYANLKQGSYGYRFNDYWGQGTQVTVSS
Concentration after heating at increasing temperatures (37° C., Table 22): 104 | Concentration after heating at increasing temperatures (50° C., Table 22): 115 | Concentration after heating at increasing temperatures (60° C., Table 22): 32 | Concentration after heating at increasing temperatures (70° C., Table 22): 13 | Concentration after heating at increasing temperatures (80° C., Table 22): 14 | Concentration after heating at increasing temperatures (90° C., Table 22): 10 | Concentration after heating at increasing temperatures (RT, Table 22): 100

B7: 12B6H3: humanised 12B6 nanobody, SEQ ID NO: 88 (protein)
VHH: EVQLVESGGGLVQPGGSLRLSCAASGRTFSYNPMGWFRQAPGKGRDVVAAISRTGGSTYYARSVEGRFTISRDNAKNMVYLQMNSLRAEDTAVYYCAAAGVRAEDGRVRTLPSEYNFWGQGTQVTVSS
Concentration after heating at increasing temperatures [1]: 101% | Concentration after heating at increasing temperatures [2]: 98% | Concentration after heating at increasing temperatures [3]: 97% | Concentration after heating at increasing temperatures [4]: 74% | Concentration after heating at increasing temperatures [5]: 73% | Concentration after heating at increasing temperatures [6]: 65% | Concentration after heating at increasing temperatures [7]: 100%

B8: 12B6H4: humanised 12B6 nanobody, SEQ ID NO: 89 (protein)
VHH: B7 VHH with N77R, M78S
Concentration after heating at increasing temperatures [1]: 101% | Concentration after heating at increasing temperatures [2]: 100% | Concentration after heating at increasing temperatures [3]: 93% | Concentration after heating at increasing temperatures [4]: 41% | Concentration after heating at increasing temperatures [5]: 66% | Concentration after heating at increasing temperatures [6]: 54% | Concentration after heating at increasing temperatures [7]: 100%

B9: 12B6H1: humanised 12B6 nanobody, SEQ ID NO: 86 (protein)
VHH: B7 VHH with N77R
Concentration after heating at increasing temperatures [1]: 101% | Concentration after heating at increasing temperatures [2]: 100% | Concentration after heating at increasing temperatures [3]: 97% | Concentration after heating at increasing temperatures [4]: 45% | Concentration after heating at increasing temperatures [5]: 58% | Concentration after heating at increasing temperatures [6]: 54% | Concentration after heating at increasing temperatures [7]: 100%

B10: 12B6H2: humanised 12B6 nanobody, SEQ ID NO: 87 (protein)
VHH: B7 VHH with D46E, N77R
Concentration after heating at increasing temperatures [1]: 97% | Concentration after heating at increasing temperatures [2]: 96% | Concentration after heating at increasing temperatures [3]: 96% | Concentration after heating at increasing temperatures [4]: 83% | Concentration after heating at increasing temperatures [5]: 46% | Concentration after heating at increasing temperatures [6]: 53% | Concentration after heating at increasing temperatures [7]: 100%

B11: 12A2H11: humanised 12A2 nanobody, SEQ ID NO: 93 (protein)
VHH: B7 VHH with R27F, D46E, V47L, A61P, R62D, N77R, N116T
Concentration after heating at increasing temperatures [8]: 111% | Concentration after heating at increasing temperatures [9]: 113% | Concentration after heating at increasing temperatures [10]: 107% | Concentration after heating at increasing temperatures [11]: 103% | Concentration after heating at increasing temperatures [12]: 85% | Concentration after heating at increasing temperatures [13]: 67% | Concentration after heating at increasing temperatures [14]: 100%

B12: 12A2H13: humanised 12A2 nanobody, SEQ ID NO: 94 (protein)
VHH: B7 VHH with R27F, D46E, V47L, A61P, R62D, M78S, N116T, Q123L
Concentration after heating at increasing temperatures [8]: 104% | Concentration after heating at increasing temperatures [9]: 103% | Concentration after heating at increasing temperatures [10]: 103% | Concentration after heating at increasing temperatures [11]: 100% | Concentration after heating at increasing temperatures [12]: 90% | Concentration after heating at increasing temperatures [13]: 81% | Concentration after heating at increasing temperatures [14]: 100%

B13: 12A2H3: humanised 12A2 nanobody, SEQ ID NO: 91 (protein)
VHH: B7 VHH with D46E, V47L, A61P, R62D, N116T
Concentration after heating at increasing temperatures [8]: 102% | Concentration after heating at increasing temperatures [9]: 101% | Concentration after heating at increasing temperatures [10]: 102% | Concentration after heating at increasing temperatures [11]: 102% | Concentration after heating at increasing temperatures [12]: 90% | Concentration after heating at increasing temperatures [13]: 89% | Concentration after heating at increasing temperatures [14]: 100%
